# Experimental data: ChEMBL document CHEMBL1145122, “Structure-based design of novel guanidine/benzamidine mimics: potent and orally bioavailable factor Xa inhibitors as novel anticoagulants” (J Med Chem, 2003)
# Sequences of proteins named here, by UniProt entry; tags and fusion partners are left off. Residues count along the entry.
# UniProt P00742, 41-179 limits assumed: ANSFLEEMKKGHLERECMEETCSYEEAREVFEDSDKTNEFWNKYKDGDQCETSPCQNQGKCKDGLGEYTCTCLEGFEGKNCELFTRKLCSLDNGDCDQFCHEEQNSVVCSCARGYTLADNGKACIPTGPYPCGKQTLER
# UniProt P00742, 235-488 limits assumed: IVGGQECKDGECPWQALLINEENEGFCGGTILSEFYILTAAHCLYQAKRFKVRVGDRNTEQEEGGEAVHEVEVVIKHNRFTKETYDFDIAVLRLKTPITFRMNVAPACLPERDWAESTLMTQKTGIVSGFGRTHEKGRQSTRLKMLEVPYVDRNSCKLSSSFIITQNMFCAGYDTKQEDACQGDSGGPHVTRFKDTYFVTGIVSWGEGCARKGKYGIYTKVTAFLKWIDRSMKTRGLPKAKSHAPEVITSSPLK
# Target: Coagulation factor X (Homo sapiens, UniProt P00742)
# Experiment: Inhibitory activity against Coagulation factor X (FXa)
smiles,measurement,value
Cc1cc(C(=O)Nc2ccc(-c3ccccc3S(N)(=O)=O)cc2)n(C2CCCNC2)n1 (stereo unspecified),Ki,21 µM
